Assay results from US20080242843A1 (AFFINICON, published 2008).

Protein sequences, listed by entry. Tags and fused reporters are not part of them. Chains listed by the source or under a name are the forms on record and can include a tag or linker. Residues count along the entry.
UniProt Q86VB7, 42-1156, form in doubt: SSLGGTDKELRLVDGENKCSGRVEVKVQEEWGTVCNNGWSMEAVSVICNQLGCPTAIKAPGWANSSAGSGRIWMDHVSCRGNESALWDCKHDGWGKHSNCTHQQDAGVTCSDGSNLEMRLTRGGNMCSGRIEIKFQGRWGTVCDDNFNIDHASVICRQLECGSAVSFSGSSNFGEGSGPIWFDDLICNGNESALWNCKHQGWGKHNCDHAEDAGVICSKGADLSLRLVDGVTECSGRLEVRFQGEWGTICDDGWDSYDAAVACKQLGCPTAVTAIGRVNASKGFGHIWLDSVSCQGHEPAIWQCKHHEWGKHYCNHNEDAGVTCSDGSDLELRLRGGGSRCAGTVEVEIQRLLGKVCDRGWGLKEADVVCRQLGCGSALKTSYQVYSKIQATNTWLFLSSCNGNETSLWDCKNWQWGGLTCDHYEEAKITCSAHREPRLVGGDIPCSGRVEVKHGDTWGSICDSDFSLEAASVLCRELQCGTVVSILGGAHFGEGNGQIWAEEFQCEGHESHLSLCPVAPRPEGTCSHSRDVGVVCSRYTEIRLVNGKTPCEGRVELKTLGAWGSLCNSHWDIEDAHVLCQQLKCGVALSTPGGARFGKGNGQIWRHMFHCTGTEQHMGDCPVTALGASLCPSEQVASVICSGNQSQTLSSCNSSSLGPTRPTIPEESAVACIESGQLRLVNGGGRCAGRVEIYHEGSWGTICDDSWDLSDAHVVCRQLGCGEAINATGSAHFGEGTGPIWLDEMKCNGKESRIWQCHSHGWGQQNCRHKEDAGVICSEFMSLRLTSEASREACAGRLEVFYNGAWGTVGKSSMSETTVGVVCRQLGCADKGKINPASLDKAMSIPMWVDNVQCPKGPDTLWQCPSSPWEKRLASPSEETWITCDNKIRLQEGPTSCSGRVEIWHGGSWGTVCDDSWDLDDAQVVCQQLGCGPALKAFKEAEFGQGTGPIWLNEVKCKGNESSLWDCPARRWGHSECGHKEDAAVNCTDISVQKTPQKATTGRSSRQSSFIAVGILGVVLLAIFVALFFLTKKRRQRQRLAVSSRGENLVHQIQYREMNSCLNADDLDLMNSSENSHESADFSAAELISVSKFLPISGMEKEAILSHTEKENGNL

Experiments:
Purified human CD163 [1] = target: T1, Purified human CD163 (human, UniProt Q86VB7 42-1156); assay: cross-competition, unlabelled Hp(1-1)-Hb against 125I-Hp(2-2)-Hb on CD163 immobilised in microtiter wells (right curve panel)
T1 construct: mature; also called HbSR; Hp-Hb receptor

Purified human CD163 [2] = target: T1, Purified human CD163; assay: competition with 125I-Hp(1-1)-Hb for CD163 immobilised in microtiter wells
Purified human CD163 [3] = target: T1, Purified human CD163; assay: competition with 125I-Hp(1-1)-Hb for CD163 immobilised in microtiter wells; apparent Kd
[4] = target: Hp-Hb complex (Hp of mixed or unstated phenotype) (human, UniProt P00738 19-406); assay: Hp-Hb affinity chromatography

B1: Hp(1-1)-Hb complex (other)
chain 1: VDSGNDVTDIADDGCPKPPEIAHGYVEHSVRYQCKNYYKLRTEGDGVYTLNNEKQWINKAVGDKLPECEAVCGKPKNPANPVQRILGGHLDAKGSFPWQAKMVSHHNLTTGATLINEQWLLTTAKNLFLNHSENATAKDIAPTLTLYVGKKQLVEIEKVVLHPNYSQVDIGLIKLKQKVSVNERVMPICLPSKDYAEVGRVGYVSGWGRNANFKFTDHLKYVMLPVADQDQCIRHYEGSTVPEKKTPKSPVGVQPILNEHTFCAGMSKYQEDTCYGDAGSAFAVHDLEEDTWYATGILSFDKSCAVAEYGVYVKVTSIQDWVQKTIAEN
chain 2: not shown
chain 3: not shown
For B1, the “IC50 (read off the curve)” value (Purified human CD163 [1]) was ~1 µg/mL, the IC50 (Purified human CD163 [2]) was ~0.3 µg/mL and the Kd (Purified human CD163 [3]) was ~2 nM.

B2: Recombinant HbSR SRCR domain 5-9 (receptor)
chain: not shown
notes: also called HbSR SRCR 5-9
B2: no binding [4].
